The values that follow come from PubChem BioAssay AID2417 (National Center for Advancing Translational Sciences (NCATS), 2010).

The structures appear in SMILES notation. Only a part is listed here, and it is no random draw. Inconclusive results are not listed. The source made the active and inactive calls.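 How the source made its calls: active means readout at or below -70, meaning at least 70% loss of cells showing the perinucleolar compartment, a nuclear body marking cancer cells; inconclusive means readout between -30 and a set limit; inactive means the rest.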

The test in a line: High Content Assay for Compounds that inhibit the Assembly of the Perinucleolar Compartment. To be noted: PC3M PTB-GFP, PNC prevalence imaging, 16 h; at 10 µM; stronger effect = lower value. The source says: High Content Assay for Compounds that inhibit the Assembly of the Perinucleolar Compartment NIH Chemical Genomics Center [NCGC] NIH Molecular Libraries Probe Centers Network [MLPCN] MLPCN Grant: MH082371-01A2 Assay Submitter (PI): Sui Huang, Northwestern University, Feinberg School of Medicine, Cell and Molecular Biology, Chicago, Illinois. The perinucleolar compartment (PNC) is a non-membrane-bound nuclear subdomain that is associated with but structurally distinct from the nucleolus. The PNC is a heritable trait, in which the number of PNCs per cell in daughter cells often mimics that of their mother cells. The PNC is heterogeneous in shape, is stable through interphase, disassembles during mitosis, and reassembles in early G1. The PNC is concentrated with newly synthesized RNA polymerase III (pol III) RNAs (MRP RNA, RNAse P H1 RNA, hY RNAs[hY1, 2, 5], Alu RNA, and SRP [7SL] RNA) and RNA binding proteins (nucleolin, PTB, CUG-BP, KSRP, Raver1, Raver2, and Rod). […] Extensive in vitro studies have shown that the PNC is unique to tumor cells and preferentially forms in tumor cells derived from solid tissues. Examination of cancer cell lines from various origins and malignant capacities has shown that PNC prevalence correlates with the malignancy of tumors and has the potential to be developed as a pan-cancer prognostic marker. […] Although the PNC is associated with a DNA locus and a handful of components have been identified, much remains to be investigated regarding the structure and function of the PNC and its mechanistic link to cancer. We have previously shown that PNC prevalence reduction is a valid strategy to identify compounds that can be used to study the structure and function of the PNC. It is necessary, however, to create a screening platform that is able to test a large number of compounds in an automated fashion. Here we report the development and robustness of an automated whole-cell phenotypic image-based screening assay that is capable of identifying such compounds.
PNC High Content Imaging Assay Procedure: 1. Cells at a density of 75-90% confluency in T175 flasks were harvested using 7 ml TrypLE Express cell dissociation reagent. After dissociation (5 minutes room temperature incubation) 10 ml of complete media was added to the TrypLE/cell suspension. The liquid was transferred to a 50 ml Conical tube and cells were pelleted at 1000 RPM for 5 min. Supernatant was removed and cells were resuspended to a final density of 150-200 cells/ul in complete media. 2. Cells were plated in 5 ul volume (750-1000 cells/well) into 1536 well Black uclear Aurora Low Base plates and allowed to recover and adhere at 37 C in a humidified 5% CO2 incubator for 4 hours. 3. After 4 hour incubation, compound libraries (23 nl of […] in columns 5-48) were transferred to the plates in duplicate using a 1536 well pintool. Camptothecin positive control (59 uM final) was added to column 2 and 1:3 dilutions of camptothecin was added to column 3. DMSO negative controls were present in columns 1 and 4. 4. After a 16 hour incubation in the 37 C incubator, cells were fixed by the addition of 4 ul of 6% EM grade paraformaldehyde (containing 0.1% triton X 100) directly to the cells. The plates were incubated at room temperature for 20 minutes. The liquid was removed using a 32 channel Kalypsys aspirator and the fixed cells were washed twice with 5 ul PBS followed by a final addition of 5 ul PBS containing 1 ug/ml Hoechst 33342. 5. Fixed plates were sealed and sotred at 4C until imaged. 6. Plates were imaged on an InCell 1000 automated microscope using a 20 x objective, a standard FITC filter set, no camera binning, and an exposure time of ~100-150 msec/well. 7. Data analysis. PNC prevalence was determined using the Multitarget analysis module from InCell Workstation software (V3.5 ) and analysis was run on a quad core workstation using the Incell Developer Toolbox (V1.7). […]
On to `Cc1cc(SC(NC(=O)c2ccccc2)C(Cl)(Cl)Cl)nc(C(C)C)n1` (stereo unspecified), for which the activity change (PNC), negative = inhibition is inactive: -26.5%. Then `O=C(COc1ccccc1)OC1CN2CCC1CC2` (stereo unspecified), with inactive: -8.79%; and `O=C(OC1CN2CCC1CC2)C12CC3CC(CC(C3)C1)C2` (stereo unspecified), with inactive: 6.46%; and `Cc1ccc2nc3c(c(C)c2c1)CC(C(Cl)Cl)S3` (stereo unspecified), with inactive: -6.59%.

For `CCN(CC)C(=S)SC(NC=O)C(Cl)(Cl)Cl` (stereo unspecified), the activity change (PNC), negative = inhibition is inactive: 15%.

Turning to `ClCCSc1nnc(-c2cccnc2)o1`, the activity change (PNC), negative = inhibition was inactive: -28.8%. Consider `CCOP1(=S)c2c(C)nn(CCC#N)c2N=C(c2ccccc2F)N1C` (stereo unspecified), for which the activity change (PNC), negative = inhibition was inactive: -6.28%.

In the case of `O=[N+]([O-])c1ccc2c(c1)nnn2O`, the activity change (PNC), negative = inhibition was inactive: -1.67%.

As to `Cc1cccc(OCC(=O)OC2CN3CCC2CC3)c1` (stereo unspecified), the activity change (PNC), negative = inhibition is inactive: -3.26%. The figure for `COc1cc(C2NCCC3(OCCO3)C2(C)C)cc(OC)c1OC` (stereo unspecified) is inactive: 4.48%; for `Clc1n[nH]nc1-c1nn[nH][15n]1` it is inactive: -14.4%; for `O=P1(Nc2ccccn2)COc2ccccc2OC1` it is inactive: 8.01%. Then `O=P1(Nc2ccc(Br)cn2)COc2ccccc2OC1`, with inactive: -14.2%; and `Cc1ccc(OCC(=O)OC2CN3CCC2CC3)cc1` (stereo unspecified), with inactive: 9.41%; and `O=P1(Nc2ncccn2)COc2ccccc2OC1`, with inactive: -27.2%. For `O=C(OC1CN2CCC1CC2)c1cccc(Cl)c1` (stereo unspecified), the activity change (PNC), negative = inhibition was inactive: 31.8%. The figure for `c1nnnn1CCn1cnnn1` is inactive: -6.17%; for `CC(C)C(=O)NC(Sc1ccccc1)C(Cl)(Cl)Cl` (stereo unspecified) it is inactive: -10.3%; for `O=P(Nc1nccs1)(c1ccccc1)c1ccccc1` it is inactive: 10.8%. The figure for `O=P1(Nc2nc3ccc(Cl)cc3s2)COc2ccccc2O1` (stereo unspecified) is active: -107%. Then `CCOC(=O)NC(Sc1ccccc1)C(Cl)(Cl)Cl` (stereo unspecified), with inactive: -2.09%; and `CC(=O)NC(SC(=S)N(CC(C)C)CC(C)C)C(Cl)(Cl)Cl` (stereo unspecified), with inactive: 9.45%; and `COC(=O)c1cc2c(s1)N=C(c1ccccc1)N(C)P2(=O)N1CCOCC1` (stereo unspecified), with inactive: 39.4%. As for `CCOP(=O)(Nc1ccccc1)OCC`, the activity change (PNC), negative = inhibition was inactive: 19.1%. Then `Cc1cc(SC(NC(=O)c2ccc(F)cc2)C(Cl)(Cl)Cl)ncn1` (stereo unspecified), with inactive: 2.97%; and `CCN(N=Nc1nonc1N)c1nonc1N`, with inactive: 9.18%; and `CN1CCCC(OC(=O)C(c2ccccc2)c2ccccc2)C1` (stereo unspecified), with active: -109%. Then `Cc1c2non([O-])c-2c(C)[n+](=O)[n+]1[O-]`, with active: -88.2%; and `O=C(NC(Sc1ccncn1)C(Cl)(Cl)Cl)c1ccccc1` (stereo unspecified), with inactive: -13.5%.

Regarding `Oc1ccccc1CNc1ccccn1`, the activity change (PNC), negative = inhibition was inactive: 0.776%. As to `CC(C)CC(=O)NC(Sc1ccc(Cl)cc1)C(Cl)(Cl)Cl` (stereo unspecified), the activity change (PNC), negative = inhibition is inactive: -9%. The figure for `CCc1nc2c(n1)c1c(non1O)c1c2no[n+]1[O-]` is inactive: -3.64%; for `O=[N+]([O-])c1cccc2n[nH]nc12` it is inactive: 2.34%; for `CC(=O)N1C2C3N(C(C)=O)C1C1N(C(C)=O)C(C(N1C(C)=O)N3C(C)=O)N2C(C)=O` it is inactive: 67.9%. Then `CC1CCN(C(=O)Oc2c(Cl)cc(Cl)c3cccnc23)CC1`, with inactive: 22.4%. Then `CN(C)C(=O)OCCc1n(C)cc[n+]1C`, with inactive: 46.8%.
